Test results as given in patent US10513539B2, “Hydrophobic modified peptides and their use for liver specific targeting” (Ruprecht-Karls-Universitat Heidelberg, priority 2011, dated 2019).

Conditions: rat, in vivo
Description: The peptide stearoyl-[K(DOTA[^68Ga])]3-[…] (SEQ ID NO:15)-amide was dissolved in citrate buffer (pH 8.0)+4% BSA and injected i.v. in the tail vene of tumour bearing WAG/Rij rats. The rats were orthopically injected with 1×10^6 syngenic colon carcinoma cells (CC531 cells) 10 days prior to the measurements. At the day of measurement the rats received the peptide in a concentration of 400 nmol/kg body weight. During the experiments the rats were anaesthetised by isoflurane and kept at 37° C.

Question: Which “enrichment of counterstain (PET)” value does the source give for “Fluodeoxyglucose(^18F) [^18F-FDG, reference compound]” here?
Answer: Its value is “enriched in organs consuming high amounts of glucose”.
